{"source": "ChEMBL document CHEMBL1127082", "about": "“3,4-Dihydroxychalcones as potent 5-lipoxygenase and cyclooxygenase inhibitors” (J Med Chem, 1993)", "key": {"[1]": {"experiment": "Inhibition of Prostaglandin G/H synthase activity in sheep seminal vesicle was determined", "type": "tissue-based, Ovis aries", "in_short": "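Sheep seminal vesicle microsomes (32 μg protein) were incubated with [14C]arachidonic acid (0.1 μCi/mL) in pH 7.4 phosphate buffer containing glutathione, epinephrine and EDTA for 10 min at 37 °C. Substrate was removed by two hexane/EtOAc extractions, and aqueous-phase radioactivity was counted by scintillation. IC50 is reported with 95% confidence limits.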"}, "[2]": {"target": "T1, Polyunsaturated fatty acid 5-lipoxygenase (Rattus norvegicus, UniProt P12527)", "T1 sequence (P12527 whole entry)": "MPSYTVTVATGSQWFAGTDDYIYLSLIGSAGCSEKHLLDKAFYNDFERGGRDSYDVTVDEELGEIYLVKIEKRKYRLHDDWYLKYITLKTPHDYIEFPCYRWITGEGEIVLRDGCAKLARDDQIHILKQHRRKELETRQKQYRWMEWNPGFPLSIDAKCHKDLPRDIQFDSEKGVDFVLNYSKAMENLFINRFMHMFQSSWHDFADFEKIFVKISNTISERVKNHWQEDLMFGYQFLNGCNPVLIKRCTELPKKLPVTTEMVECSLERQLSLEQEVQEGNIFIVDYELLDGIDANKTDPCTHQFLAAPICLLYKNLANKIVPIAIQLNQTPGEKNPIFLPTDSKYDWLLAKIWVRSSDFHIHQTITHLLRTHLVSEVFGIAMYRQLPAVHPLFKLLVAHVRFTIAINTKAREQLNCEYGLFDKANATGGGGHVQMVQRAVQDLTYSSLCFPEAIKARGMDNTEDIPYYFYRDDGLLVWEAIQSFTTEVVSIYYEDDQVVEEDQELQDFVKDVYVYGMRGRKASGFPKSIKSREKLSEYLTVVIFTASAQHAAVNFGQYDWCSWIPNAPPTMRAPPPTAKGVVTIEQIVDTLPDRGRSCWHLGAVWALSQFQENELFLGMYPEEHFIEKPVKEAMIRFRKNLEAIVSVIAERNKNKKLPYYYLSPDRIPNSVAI", "experiment": "In vitro inhibition against 5-lipoxygenase in RBL-1 cells was determined", "type": "cell-based"}}, "note": "pIC50: −log10 of the molar value."}
{"compound": "COc1ccc(O)c(C(=O)/C=C/c2ccc(O)c(O)c2)c1", "values": [{"measurement": "pIC50", "setting": "[1]", "result": 4.39}, {"measurement": "pIC50", "setting": "[2]", "result": 7.39}]}
{"compound": "COc1ccc(C(=O)/C=C/c2ccc(O)c(O)c2)c(O)c1", "note": "[CALYTHROPSIN]", "values": [{"measurement": "pIC50", "setting": "[2]", "result": 7.82}]}
